Sampled rows, rich in hits. Any-hit rate of the full collection: about 0.46%.
GIV Gai3 FP: blocks GIV peptide binding to rat Galpha-i3; P08753; Galpha-i3/FITC-GIV peptide fluorescence polarization, 90 min; stronger effect = lower value; scaled: aluminum fluoride 0%, vehicle 100%; percent of control (FP), % (no concentration beside the values); 210,000 tested, 0.42% active; AID 1224905;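 active = replicate mean at 85% of control or lower, very high polarization wells dropped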;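 also: wells of about 15 µL received 100 nL stock; the first replicate is given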
HCMV NEC inh: inhibitors of HCMV UL50-UL53 nuclear egress complex interaction | HTRF UL50-UL53 interaction, normalized percent inhibition | inhibition, % (no concentration beside the values) | AID 1918969 | 190,000 compounds, 0.15% hits; in the data active means inhibition above about 27%, passing the limit was not always enough
* marks the source's active call; other numbers are inactive results.

Screening O=C1C2=C(NC3=C(C(=O)c4ccccc43)C23C(=O)Nc2ccccc23)c2ccccc21 returned GIV Gai3 FP 107 and HCMV NEC inh -10.
`CCCN1CC=C2C(C1)C(c1ccc(C(=O)OC)cc1)C(C#N)=C(N)C2(C#N)C#N` (stereo not given) gave GIV Gai3 FP 110 and HCMV NEC inh -56.
CCN1CC=C2C(C1)C(c1ccc(Cl)s1)C(C#N)=C(N)C2(C#N)C#N (stereo not given) was read as GIV Gai3 FP -52* and HCMV NEC inh -29.
Screening Nc1c(C(=O)Nc2ccc(F)c(F)c2)sc2nc(-c3ccncc3)ccc12 returned GIV Gai3 FP 124 and HCMV NEC inh 2.
`Cc1ccc(NC(=O)c2sc3nc(-c4ccncc4)ccc3c2N)cc1` gave GIV Gai3 FP -53* and HCMV NEC inh 2.
O=C(O)c1cc(NC(=O)c2cccc(N3C(=O)c4cccc5c([N+](=O)[O-])ccc(c45)C3=O)c2)cc(C(=O)O)c1 was read as GIV Gai3 FP 85* and HCMV NEC inh -20.
`O=C(O)c1cccc(N2C(=O)c3ccc4c5c(ccc(c35)C2=O)C(=O)N(c2cccc(C(=O)O)c2)C4=O)c1` gave GIV Gai3 FP 105 and HCMV NEC inh -43.
Screening CCOC(=O)C1=C(C)NC2=C(C(=O)C(C(=O)OCC)C(c3cccc(OC)c3)C2)C1c1ccc(O)c(OC)c1 (stereo not given) returned GIV Gai3 FP 104.
Screening CC(C)c1ccc(S(=O)(=O)Nc2cc(C(=O)O)cnc2N(C)C)cc1 returned GIV Gai3 FP 75* and HCMV NEC inh -24.
CC(C)Cc1ccc(S(=O)(=O)Nc2cc(C(=O)O)cnc2N(C)C)cc1 was read as GIV Gai3 FP 101 and HCMV NEC inh -20.
Screening CC(C)N1CCc2c(sc(NC(=O)C3=COCCO3)c2C(N)=O)C1 returned GIV Gai3 FP 278 and HCMV NEC inh -63.
`CC(C)N1CCc2c(sc(N)c2C(N)=O)C1` gave GIV Gai3 FP -67*.
Screening COc1ccc(NC(C)=O)cc1NC(C)C(=O)NC(C)c1ccc(F)cc1 (stereo not given) returned HCMV NEC inh -28.
For O=C(NCC1CCCO1)c1cc2c(s1)-c1ccccc1OC2 (stereo not given) the results were GIV Gai3 FP 111.
O=C(NCC1CCCO1)c1cc(-c2ccccc2)c(N2CCCCC2)s1 (stereo not given) was read as GIV Gai3 FP 102 and HCMV NEC inh 35*.
Screening O=C(Cn1cnc2ccccc2c1=O)c1ccc(Cl)cc1 returned HCMV NEC inh -6.
CCOC(=O)C1=C(CSc2nc3cc(C(=O)OCC)ccc3n2CC)NC(=O)NC1C (stereo not given) was read as HCMV NEC inh -12.
Screening Cc1ccc(NC(=O)c2cc3cc4c5c(c3oc2=N)CCCN5CCC4)cc1 returned GIV Gai3 FP -14* and HCMV NEC inh -23.
For COc1cccc(NC(=O)c2cc3cc4c5c(c3oc2=N)CCCN5CCC4)c1 the results were GIV Gai3 FP -14* and HCMV NEC inh -21.
Screening COc1cccc(NC(=O)c2cc3ccccc3oc2=O)c1 returned HCMV NEC inh -2.

Three entries picked at random from those above, as already listed:
O=C(NCC1CCCO1)c1cc(-c2ccccc2)c(N2CCCCC2)s1 (stereo not given) was read as GIV Gai3 FP 102 and HCMV NEC inh 35*.
Screening CC(C)N1CCc2c(sc(NC(=O)C3=COCCO3)c2C(N)=O)C1 returned GIV Gai3 FP 278 and HCMV NEC inh -63.
For COc1cccc(NC(=O)c2cc3cc4c5c(c3oc2=N)CCCN5CCC4)c1 the results were GIV Gai3 FP -14* and HCMV NEC inh -21.

Further results follow.
For N=c1oc2c(Cl)cc(Cl)cc2cc1C(=O)Nc1ccc(F)cc1 the results were GIV Gai3 FP 100 and HCMV NEC inh -8.
Screening O=C(OCc1ccccc1)Oc1cncc(C(=O)ON2C(=O)CCC2=O)c1 returned GIV Gai3 FP 129 and HCMV NEC inh -13.
For CN(C)c1ccc(N=Cc2nc(-c3ccccc3)oc2OC(=O)c2ccccc2)cc1 the results were HCMV NEC inh -30.
Screening CN(C)c1ccc(N=Cc2nc(-c3ccccc3)oc2O)cc1 returned GIV Gai3 FP -24*.
`Cc1cccc(-n2nc3c(c2NC(=O)c2ccc(S(=O)(=O)N4CCCCC4)cc2)CSC3)c1C` gave GIV Gai3 FP 109.
For Cc1ccccc1-n1nc2c(c1NC(=O)c1ccc(S(=O)(=O)N3CCCCC3)cc1)CSC2 the results were GIV Gai3 FP 104 and HCMV NEC inh 40*.
Screening COc1ccc(-n2nc3c(c2NC(=O)c2ccc(S(=O)(=O)N4CCCC4)cc2)CSC3)cc1 returned GIV Gai3 FP 104 and HCMV NEC inh 58*.
Screening Cc1ccc(-n2nc3c(c2NC(=O)c2ccc(S(=O)(=O)N4CCCCC4)cc2)CSC3)c(C)c1 returned GIV Gai3 FP 103 and HCMV NEC inh 6.
`Cc1ccc(-n2nc3c(c2NC(=O)c2ccc(S(=O)(=O)N4CCOCC4)cc2)CSC3)c(C)c1` gave GIV Gai3 FP 109 and HCMV NEC inh 90*.
COc1ccc(-n2nc3c(c2NC(=O)c2ccc(S(=O)(=O)N4CCCCC4)cc2)CSC3)cc1 was read as GIV Gai3 FP 102 and HCMV NEC inh 32.
For Nc1c(Cl)cc(N2C(=O)C3C4c5ccccc5C(c5ccccc54)C3C2=O)cc1Cl (stereo not given) the results were GIV Gai3 FP 103.
CC(C)OCCCNc1ncnc2c1CCC2 was read as GIV Gai3 FP 103.

Source: PubChem BioAssay (ICCB-Longwood Screening Facility, Harvard Medical School)
